Experimental data reported in ChEMBL document CHEMBL5154744, “Stereo-Defined Acyclic Nucleoside Phosphonates are Selective and Potent Inhibitors of Parasite 6-Oxopurine Phosphoribosyltransferases” (J Med Chem, 2022).

Molecular target: T1, Hypoxanthine-guanine phosphoribosyltransferase (Homo sapiens, UniProt P00492)
T1 sequence (P00492 whole entry): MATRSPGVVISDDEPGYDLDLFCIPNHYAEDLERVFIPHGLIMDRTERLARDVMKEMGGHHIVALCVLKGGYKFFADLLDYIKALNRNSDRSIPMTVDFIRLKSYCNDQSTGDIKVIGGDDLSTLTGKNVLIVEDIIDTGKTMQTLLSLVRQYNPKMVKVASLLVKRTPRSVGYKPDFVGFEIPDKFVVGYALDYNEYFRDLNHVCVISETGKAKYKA
Assay: Inhibition of human HGPRT using PRib-PP as substrate by spectrophotometric assay

O=C(CCP(=O)(O)O)N1CC(OC[C@@H](O)P(=O)(O)O)[C@H](n2cnc3c(=O)[nH]cnc32)C1 (stereo partly specified)
Ki: 1.3 nM
